Measurements as given in article PMC10051560, “Identification and Functional Characterization of General Odorant Binding Proteins in Orthaga achatina” (Insects, 2023).
pKi: −log10 of the molar value.

Chains of the proteins cited; added tags and fusions are not shown. Residues count along the entry.
UniProt H6UEU3, 23-163 limits assumed: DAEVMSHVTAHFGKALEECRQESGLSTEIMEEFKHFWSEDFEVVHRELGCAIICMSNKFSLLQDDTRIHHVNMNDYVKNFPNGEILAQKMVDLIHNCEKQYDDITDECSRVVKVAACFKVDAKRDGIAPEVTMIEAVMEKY

Biological target: OachGOBP2 (Orthaga achatina, UniProt H6UEU3)
Assay: Fluorescence competitive binding assay (1-NPN displacement), OachGOBP2
Conditions: read-out: GOBP2 Ki; Ki = [IC50]/(1 + [1-NPN]/K1-NPN); 2 µM protein and 2 µM 1-NPN in 50 mM Tris HCl

**Q.** How did the pKi turn out when `CCCC/C=C\CCCCCCCCCC=O` [Z11-16: Ald] was run?
**A.** Its pKi is under 4.52.
